SMILES strings stand for the structures. The list shows a part of the results, in another mix than the full data. Active and inactive are the calls of the source. Rule as the data show it: active = inhibition above about 13%; inactive = the rest.

Sequences of proteins named here, by UniProt entry; tags and fusion partners are left off.
UniProt Q9UBB5, whole entry: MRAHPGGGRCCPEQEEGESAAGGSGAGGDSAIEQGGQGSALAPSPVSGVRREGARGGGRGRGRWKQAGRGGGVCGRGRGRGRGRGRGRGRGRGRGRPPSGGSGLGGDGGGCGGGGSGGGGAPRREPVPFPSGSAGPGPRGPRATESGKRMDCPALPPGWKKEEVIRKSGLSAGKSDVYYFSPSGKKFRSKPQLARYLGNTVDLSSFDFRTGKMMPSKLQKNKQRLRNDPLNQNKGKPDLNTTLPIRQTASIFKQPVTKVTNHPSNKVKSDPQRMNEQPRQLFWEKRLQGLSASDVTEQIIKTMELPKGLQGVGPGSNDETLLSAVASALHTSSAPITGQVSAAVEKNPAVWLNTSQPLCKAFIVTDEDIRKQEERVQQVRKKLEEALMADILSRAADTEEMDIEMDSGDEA

The inhibition is the drop in the measured response relative to a control, in per cent.

In the experiment the target is Methyl-CpG-binding domain protein 2 (Homo sapiens) (UniProt Q9UBB5). Briefly: inhibitors of MBD2 binding to methylated DNA, primary screen, biochemical, TR-FRET, DNA-binding domain, human (AID 686964). As to conditions: MBD2 binding to methylated oligonucleotide, at 4.4 µM, stronger effect = higher value. In general terms: TR-FRET usually uses a lanthanide donor and a delayed reading to cut background.
In the case of `CCC(=O)N(c1ccccc1)C1(COC)CCN(CCn2nnn(CC)c2=O)CC1`, the inhibition is inactive: -1.11%.
To `CCC(=O)N(c1ccccc1)C1(COC)CCN(CCc2cccs2)CC1` belongs inactive: -4.03%.

The values above are taken from PubChem BioAssay AID686964 (The Scripps Research Institute Molecular Screening Center, 2013).
